From PubChem BioAssay AID798 (PCMD, 2007)
Only a part is listed here, and it is no random draw. Calls of active or inactive are those of the source.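 How the source made its calls: active means inhibition of at least 40%; inactive means inhibition below 40%.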

The chains behind the UniProt entries cited, without tags or fusion partners. Residues count along the entry.
UniProt P03951, 19-387 limits assumed: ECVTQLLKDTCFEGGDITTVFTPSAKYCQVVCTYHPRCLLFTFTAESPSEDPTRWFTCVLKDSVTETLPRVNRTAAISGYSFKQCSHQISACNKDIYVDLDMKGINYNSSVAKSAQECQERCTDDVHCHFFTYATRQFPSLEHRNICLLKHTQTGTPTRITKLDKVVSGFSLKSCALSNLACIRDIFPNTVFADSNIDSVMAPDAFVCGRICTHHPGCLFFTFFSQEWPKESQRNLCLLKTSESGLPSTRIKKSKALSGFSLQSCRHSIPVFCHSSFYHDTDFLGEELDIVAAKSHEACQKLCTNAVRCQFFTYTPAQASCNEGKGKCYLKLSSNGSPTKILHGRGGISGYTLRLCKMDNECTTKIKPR
UniProt P03951, 388-625 limits assumed: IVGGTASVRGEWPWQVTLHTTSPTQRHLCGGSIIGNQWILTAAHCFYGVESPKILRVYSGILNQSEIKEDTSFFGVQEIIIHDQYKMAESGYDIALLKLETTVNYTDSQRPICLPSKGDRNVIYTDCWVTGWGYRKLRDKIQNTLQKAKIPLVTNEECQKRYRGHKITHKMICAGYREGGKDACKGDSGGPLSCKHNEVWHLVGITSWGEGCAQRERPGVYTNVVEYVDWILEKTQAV

Target: Coagulation factor XI (Homo sapiens) (UniProt P03951)
Experiment: human FXIa protease inhibitors, primary screen, biochemical, 1536-well (AID 798);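 further: fluorescence of freed AMC excited at 355 nm; 0% = enzyme without compound and 100% = no enzyme blank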
Settings: purified FXIa, Boc-Glu-Ala-Arg-AMC fluorogenic substrate; at 5 µM; hits give high values

Question: How did the inhibition turn out when `O=C(NCC1(N2CCCCC2)CCCCC1)c1cccc([N+](=O)[O-])c1` was run?
Answer: The inhibition was inactive: -2.47%.

Question: For `N#CC1(Nc2ccccc2)CCN(CCc2ccccc2)CC1`, which inhibition is on record?
Answer: Its inhibition is inactive: 3.87%.

Question: With `COc1ccc(NC2CCN(C(=O)OC(C)(C)C)CC2)cc1` as the compound, how does the inhibition read?
Answer: The inhibition was inactive: 1.98%.

Question: Which inhibition does the source give for `CN1CCN(CCOC(=O)C(O)(c2ccccc2)c2ccccc2)CC1` here?
Answer: The inhibition was inactive: 7.61%.

Question: `O=C(NCC1(N2CCOCC2)CCCCC1)c1cc(=O)[nH]c2ccccc12` was tested. Which inhibition did it give?
Answer: Its inhibition is inactive: 0.3%.

Question: How did the inhibition turn out when `COc1ccc(CN(CCCl)CCCl)cc1Cl` was run?
Answer: Its inhibition is inactive: -3.41%.

Question: For `CN(C)c1cccc(C(=O)NCC2(N3CCCCC3)CCCCC2)c1`, which inhibition is on record?
Answer: Its inhibition is inactive: 1.53%.

Question: For `CC(C)c1ccc(NC2CCN(C(=O)OC(C)(C)C)CC2)cc1`, which inhibition is on record?
Answer: Its inhibition is inactive: -1.44%.

Question: How did the inhibition turn out when `COc1ccc(C(=O)NCC2(N3CCCCC3)CCCCC2)c(OC)c1OC` was run?
Answer: The inhibition was inactive: -6.44%.

Question: How did the inhibition turn out when `O=C(NCC1(N2CCOCC2)CCCCC1)c1cc2ccccc2o1` was run?
Answer: The inhibition was inactive: 17.4%.

Question: Which inhibition does the source give for `CCOC(=O)N1CCC(Nc2ccc(OC)cc2)CC1` here?
Answer: Its inhibition is inactive: -5.54%.

Question: `N#CC1(Nc2ccccc2)CCN(Cc2ccccc2)CC1` was tested. Which inhibition did it give?
Answer: The inhibition was inactive: 7.83%.

Question: For `O=C(OC1CN2CCC1CC2)C1c2ccccc2Oc2ccccc21` (centres undefined), which inhibition is on record?
Answer: The inhibition was inactive: -3.85%.

Question: `CCOc1ccc(C)cc1CN(CCCl)CCCl` was tested. Which inhibition did it give?
Answer: The inhibition was inactive: 8.97%.

Question: With `COc1ccc(NC2CCN(CCc3ccccc3)CC2)c(OC)c1` as the compound, how does the inhibition read?
Answer: The inhibition was inactive: -3.07%.

Question: Which inhibition does the source give for `Cc1ccc(OCC(C)C)c(CN(CCCl)CCCl)c1` here?
Answer: Its inhibition is inactive: 6.17%.

Question: With `Fc1ccccc1NC1CCN(Cc2ccccc2)CC1` as the compound, how does the inhibition read?
Answer: Its inhibition is inactive: 10.8%.

Question: For `CCN1CCC(Nc2cccc(F)c2)CC1`, which inhibition is on record?
Answer: The inhibition was inactive: 3.65%.

Question: Which inhibition does the source give for `CN(C)c1ccc(C(=O)NCC2(N3CCCCC3)CCCCC2)cc1` here?
Answer: Its inhibition is inactive: -1.69%.

Question: `CCOc1ncccc1C(=O)NCC1(N2CCOCC2)CCCCC1` was tested. Which inhibition did it give?
Answer: Its inhibition is inactive: 4.83%.

Question: How did the inhibition turn out when `CC(C)(C)OC(=O)N1CCC(Nc2ccccc2)CC1` was run?
Answer: Its inhibition is inactive: 18.1%.

Question: `CCC(CO)(C(=O)OC1CN2CCC1CC2)c1ccccc1` (centres undefined) was tested. Which inhibition did it give?
Answer: Its inhibition is inactive: 4.73%.

Question: Which inhibition does the source give for `COc1cc(OC)cc(C(=O)NCC2(N3CCOCC3)CCCCC2)c1` here?
Answer: The inhibition was inactive: -5.64%.

Question: With `CCCOc1ccc(C)cc1CN(CCCl)CCCl` as the compound, how does the inhibition read?
Answer: Its inhibition is inactive: 7.36%.

Question: For `COc1ccc(C(=O)NCC2(N3CCOCC3)CCCCC2)cc1OC`, which inhibition is on record?
Answer: The inhibition was inactive: 1.79%.

Question: With `N/C(=N\O)c1c(N)no[n+]1[O-]` as the compound, how does the inhibition read?
Answer: Its inhibition is inactive: -6.43%.

Question: With `O=C(OC1CN2CCC1CC2)C1c2ccccc2C=Cc2ccccc21` (centres undefined) as the compound, how does the inhibition read?
Answer: The inhibition was inactive: -1.44%.

Question: For `N#Cc1ccc(C(=O)NCC2(N3CCCCC3)CCCCC2)cc1`, which inhibition is on record?
Answer: The inhibition was inactive: 1.29%.

Question: With `c1ccc(CN2CCC(Nc3ccccc3)CC2)cc1` as the compound, how does the inhibition read?
Answer: Its inhibition is inactive: -4.48%.
